US7429673B2, “TRPV1 agonists, formulations containing them and uses thereof” (priority 2004, dated 2008)

Chains of the proteins cited; added tags and fusions are not shown.
UniProt Q8NER1, whole entry: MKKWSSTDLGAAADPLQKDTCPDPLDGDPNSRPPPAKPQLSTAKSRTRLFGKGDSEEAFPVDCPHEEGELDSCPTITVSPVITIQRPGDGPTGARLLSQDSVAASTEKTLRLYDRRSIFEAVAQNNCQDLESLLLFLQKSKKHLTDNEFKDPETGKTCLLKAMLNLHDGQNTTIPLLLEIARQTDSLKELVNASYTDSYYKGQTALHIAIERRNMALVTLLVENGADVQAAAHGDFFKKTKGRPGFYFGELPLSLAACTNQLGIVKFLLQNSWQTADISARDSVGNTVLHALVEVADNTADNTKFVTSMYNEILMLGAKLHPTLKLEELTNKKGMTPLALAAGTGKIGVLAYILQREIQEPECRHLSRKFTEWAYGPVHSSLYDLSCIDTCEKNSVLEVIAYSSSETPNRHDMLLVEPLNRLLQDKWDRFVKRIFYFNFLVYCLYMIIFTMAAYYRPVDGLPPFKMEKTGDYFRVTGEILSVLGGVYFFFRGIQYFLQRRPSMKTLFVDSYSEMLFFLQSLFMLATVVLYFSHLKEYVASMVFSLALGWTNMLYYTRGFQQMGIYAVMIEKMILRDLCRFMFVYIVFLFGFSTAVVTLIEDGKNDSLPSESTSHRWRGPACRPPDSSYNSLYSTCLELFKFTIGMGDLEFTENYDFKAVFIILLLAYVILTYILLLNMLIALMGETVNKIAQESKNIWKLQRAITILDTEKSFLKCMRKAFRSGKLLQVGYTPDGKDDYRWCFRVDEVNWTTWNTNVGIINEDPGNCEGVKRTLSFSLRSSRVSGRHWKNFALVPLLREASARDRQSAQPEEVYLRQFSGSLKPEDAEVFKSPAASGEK

Biological target: human TRPV1 (Homo sapiens, UniProt Q8NER1)
Assay: TPRV1 binding assay, displacement of [3H]RTX from HEK cells membranes
Settings: read-out: Kd for [3H]RTX, 50 μg/tube, tested as the radiolabelled form
Method: Affinity for human TRPV1 was measured by displacement of [3H]RTX (48 Ci/mmol, NEN-Dupont) from HEK cells membranes (50 μg/tube) according to the method described by Ross (Ross et al., Br. J. Pharmacol. 2001, 132, 631-640). In these conditions Kd and Bmax for [^3H]RTX were 0.5 nM and 1.39 pmol/mg protein. The Ki of the displacement of 1 nM [3]RTX was calculated from the IC50 value (obtained with GraphPad Software) using Cheng-Prusoff's equation. Specific binding was calculated with 1 μM RTX (Alexis Biochemicals) and was 48.1+5.6%.

Structure (SMILES): C=C(C)C12CC(C)C34OC(Cc5ccccc5)(OC1C3C=C(COC(=O)Cc1ccc(O)c(OC)c1)CC1(O)C(=O)C(C)=CC14)O2 (stereo not shown)
- Kd: 0.5 nM
